The record followed here is paper PMC11151825 (RSC Chemical Biology, 2024).

Protein sequences, listed by entry. Tags and fused reporters are not part of them. Lines headed by an entry give the natural chain unless they say otherwise; changes in a name come on top.
UniProt P30874: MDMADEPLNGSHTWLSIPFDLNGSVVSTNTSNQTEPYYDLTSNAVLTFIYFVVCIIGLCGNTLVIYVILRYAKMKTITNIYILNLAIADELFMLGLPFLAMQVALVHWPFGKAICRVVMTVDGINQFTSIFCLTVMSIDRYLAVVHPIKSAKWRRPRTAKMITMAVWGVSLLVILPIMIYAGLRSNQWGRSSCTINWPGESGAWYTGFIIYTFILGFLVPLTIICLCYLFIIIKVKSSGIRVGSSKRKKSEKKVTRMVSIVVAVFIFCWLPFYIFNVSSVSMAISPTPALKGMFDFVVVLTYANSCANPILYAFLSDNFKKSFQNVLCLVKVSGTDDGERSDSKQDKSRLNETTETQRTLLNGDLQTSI

The structures appear in SMILES notation.

The target of this assay is somatostatin receptor 2 (SST2R) (Homo sapiens, UniProt P30874). Put plainly: PRESTO-Tango assay on cells expressing SST2R.

With `CC(C)[C@@H]1NC(=O)[C@@H]2CSSC[C@@H]3NC(=O)[C@H]([C@@H](C)O)NC(=O)[C@@H]4CSSC[C@H](NC(=O)[C@H](C(C)C)NC(=O)[C@H]([C@@H](C)O)NC(=O)[C@@H]5CSSC[C@H](NC(=O)[C@@H](Cc6ccccc6)NC(=O)[C@H]([C@@H](C)O)NC(=O)[C@H](CSSC[C@H](NC(=O)[C@H]([C@@H](C)O)NC(=O)CNC(=O)CNC1=O)C(=O)N[C@@H](CC(N)=O)C(=O)N[C@@H]([C@@H](C)O)C(=O)N1CCC[C@H]1C(=O)NCC(=O)N4)NC(=O)[C@H](C(C)C)NC(=O)[C@@H]1CCCN1C(=O)[C@H](Cc1c[nH]c4ccccc14)NC(=O)[C@H](CO)NC3=O)C(=O)N[C@@H](Cc1ccccc1)C(=O)N[C@H](Cc1c[nH]c3ccccc13)C(=O)N[C@@H](CCCCN)C(=O)N[C@@H]([C@@H](C)O)C(=O)N5)C(=O)NCC(=O)N[C@@H](CCC(N)=O)C(=O)N[C@@H]([C@@H](C)O)C(=O)N2`, the “Emax compared to octreotide” value (HTLA cells transfected with SST2R, 24 h stimulation, mean ± SEM, n=3) is 82.1 ± 14.2%. Besides, the EC50 (read-out: EC50 (agonist activity), HTLA cells transfected with SST2R, 24 h stimulation, luminescence, mean ± SEM, n=3) was 1500 nM.

As a reminder, the EC50 is the concentration needed to bring the measured effect to its halfway point.
